From article PMC8286840, “Identifying SARS-CoV-2 antiviral compounds by screening for small molecule inhibitors of Nsp3 papain-like protease” (Biochemical Journal, 2021)
Structures can show the parent of a compound that is named as a salt. Where two headings read alike, the source gives them in different places.

Experiments:
[1] = target: T1, SARS-CoV-2 PLpro (nsp3 1564–1878) (Severe acute respiratory syndrome coronavirus 2, UniProt P0DTD1); test: biochemical
[2] = target: T1, SARS-CoV-2 PLpro (nsp3 1564–1878); test: biochemical; remark: listed apart in the source
[3] = read-out: % of control remaining

CC(C)NCC(O)COc1cccc2ccccc12 (centres unmarked) [Propranolol HCl] showed a remaining activity at 1.25 µM ([1]; read-out: % of control remaining, Well no.=4734, low concentration screen) of 112% and a remaining activity at 3.75 µM ([2]; read-out: % of control remaining, Well no.=4734, high concentration screen) of 107%.

With CN1CCN(CC(=O)N2c3ccccc3C(=O)Nc3cccnc32)CC1 [Pirenzepine dihydrochloride] the remaining activity at 1.25 µM ([1]; read-out: % of control remaining, Well no.=1157, low concentration screen) was 107% and the remaining activity at 3.75 µM ([2]; read-out: % of control remaining, Well no.=1157, high concentration screen) was 105%.

Molecule CN(C)CCOC(c1ccccc1)c1ccccc1 [Diphenhydramine hydrochloride] has a remaining activity at 1.25 µM ([1]; read-out: % of control remaining, Well no.=639, low concentration screen) of 102% and a remaining activity at 3.75 µM ([2]; read-out: % of control remaining, Well no.=639, high concentration screen) of 102%.

In the case of CC(C)NCC(O)COc1cccc2ccccc12 (racemic), the remaining activity at 1.25 µM ([1]; read-out: % of control remaining, Well no.=854, low concentration screen) is reported as 98.8%.

Work on COc1cc(/C=C/C(=O)NCCn2c(C(F)(F)F)cc3ccccc32)cc(OC)c1OC [TG6-10-1] yielded a remaining activity at 1.25 µM [1, 3] of 92.3% and a remaining activity at 3.75 µM [2, 3] of 85.9%.

CC(C)NC[C@H](O)COc1cccc2ccccc12 [(S)-Propranolol hydrochloride] gave a remaining activity at 1.25 µM ([1]; read-out: % of control remaining, Well no.=1447, low concentration screen) of 98.4%.

CC(C)NCC(O)COc1cccc2ccccc12 (centres unmarked) [Propranolol (hydrochloride)] showed a remaining activity at 1.25 µM ([1]; read-out: % of control remaining, Well no.=6618, low concentration screen) of 96.7% and a remaining activity at 3.75 µM ([2]; read-out: % of control remaining, Well no.=6618, high concentration screen) of 96.4%.

Molecule CC(C)NCC(O)COc1cccc2ccccc12 (centres unmarked) [Propranolol] has a remaining activity at 1.25 µM ([1]; read-out: % of control remaining, Well no.=2205, low concentration screen) of 92.2% and a remaining activity at 3.75 µM ([2]; read-out: % of control remaining, Well no.=2205, high concentration screen) of 93.8%.

CN(C)CCOC(c1ccccc1)c1ccccc1 [Diphenhydramine.HCl] gave a remaining activity at 3.75 µM ([2]; read-out: % of control remaining, Well no.=1638, high concentration screen) of 107%.

In the case of CN(C)CCOC(c1ccccc1)c1ccccc1 [Diphenhydramine (hydrochloride)], the remaining activity at 1.25 µM ([1]; read-out: % of control remaining, Well no.=7573, low concentration screen) is reported as 99.4%.

OCCN1CCN(CCCN2c3ccccc3Sc3ccc(C(F)(F)F)cc32)CC1 [Fluphenazine (dihydrochloride)] gave a remaining activity at 1.25 µM ([1]; read-out: % of control remaining, Well no.=7659, low concentration screen) of 94.9%.

For CN(C)CCCN1c2ccccc2CCc2ccc(Cl)cc21 [Clomipramine (hydrochloride)], the remaining activity at 3.75 µM ([2]; read-out: % of control remaining, Well no.=6190, high concentration screen) was 104%.

CN1CCN(CC(=O)N2c3ccccc3C(=O)Nc3cccnc32)CC1 [Pirenzepine (dihydrochloride)] was tested, and the remaining activity at 1.25 µM ([1]; read-out: % of control remaining, Well no.=7324, low concentration screen) was 92.6% and the remaining activity at 3.75 µM ([2]; read-out: % of control remaining, Well no.=7324, high concentration screen) was 91.8%.
